# Results from patent US20230338337A1, “BIOMARKERS FOR CANCER THERAPY USING MDM2 ANTAGONISTS” (OTSUKA PHARMACEUTICAL CO., LTD., priority 2019, published 2023).
# System: SJSA-1
# Experiment: Protocol B: CellTiter-Glo cell viability assay
# Settings: read-out: SJSA1 IC50 (μM) (Protocol B); Protocol B
row,Substance,IC50 [µM]
1,"1-({[(1R)-1-(4-chlorophenyl)-2-[(5-chloropyridin-2-yl)methyl]-7-fluoro-5-[1-hydroxy-1-(1-methylpiperidin-4-yl)ethyl]-3-oxo-2,3-dihydro-1H-isoindol-1-yl]oxy}methyl)cyclopropane-1-carboxamide [Example 305]",1.9
2,"1-({[(1R)-1-(4-chlorophenyl)-2-[(5-chloropyridin-2-yl)methyl]-7-fluoro-5-[1-hydroxy-1-(1-methylpiperidin-4-yl)ethyl]-3-oxo-2,3-dihydro-1H-isoindol-1-yl]oxy}methyl)cyclopropane-1-carboxamide [Example 306]",6.6
3,"1-({[(1R)-2-[(4-chloro-2-methanesulfonylphenyl)methyl]-1-(4-chlorophenyl)-7-fluoro-5-(2-hydroxypropan-2-yl)-3-oxo-2,3-dihydro-1H-isoindol-1-yl]oxy}methyl)cyclopropane-1-carboxamide [Example 35]",0.8
4,"1-({[(1R)-2-[(5-chloro-1-oxo-1λ^5-pyridin-2-yl)methyl]-1-(4-chlorophenyl)-7-fluoro-5-[1-hydroxy-1-(1-methyl-1H-pyrazol-4-yl)ethyl]-3-oxo-2,3-dihydro-1H-isoindol-1-yl]oxy}methyl)cyclopropane-1-carbonitrile [Example 408]",0.75
5,"2-({[1-({[(1R)-1-(4-chlorophenyl)-2-[(5-chloropyridin-2-yl)methyl]-7-fluoro-5-(2-hydroxypropan-2-yl)-3-oxo-2,3-dihydro-1H-isoindol-1-yl]oxy}methyl)cyclopropyl]methyl}amino)-N-methylacetamide [Example 155]",0.31
6,"2-{[1-({[(1R)-1-(4-Chlorophenyl)-2-[(5-chloropyridin-2-yl)methyl]-7-fluoro-5-(2-hydroxypropan-2-yl)-3-oxo-2,3-dihydro-1H-isoindol-1-yl]oxy}methyl)cyclopropyl]methoxy}acetic acid [Example 144]",2.9
7,"2-{[(1R)-1-(4-chlorophenyl)-7-fluoro-1-({1-[hydroxydideuteromethyl]cyclopropyl}dideuteromethoxy)-5-(2-hydroxybutan-2-yl)-3-oxo-2,3-dihydro-1H-isoindol-2-yl]methyl}pyrimidine-5-carbonitrile [Example 577]",0.079
8,"2-{[(1R)-1-(4-chlorophenyl)-7-fluoro-1-[(3-fluorooxetan-3-yl)methoxy]-5-[1-hydroxy-1-(1-methyl-1H-imidazol-4-yl)propyl]-3-oxo-2,3-dihydro-1H-isoindol-2-yl]methyl}pyrimidine-5-carbonitrile [Example 471]",3.5
9,"2-{[(1R)-1-(4-chlorophenyl)-7-fluoro-5-[1-hydroxy-1-(1-methyl-1H-imidazol-4-yl)propyl]-1-[(trans-3-hydroxycyclopentyl)oxy]-3-oxo-2,3-dihydro-1H-isoindol-2-yl]methyl}pyrimidine-5-carbonitrile [Example 461]",0.091
10,"2-{[(1R)-1-(4-chlorophenyl)-7-fluoro-5-[1-hydroxy-1-(1-methyl-1H-imidazol-4-yl)propyl]-1-[(trans-3-hydroxycyclopentyl)oxy]-3-oxo-2,3-dihydro-1H-isoindol-2-yl]methyl}pyrimidine-5-carbonitrile [Example 479]",0.079
11,"2-{[(1R)-1-(4-chlorophenyl)-7-fluoro-5-[1-hydroxy-1-(1-methyl-1H-imidazol-4-yl)propyl]-1-[(trans-3-hydroxycyclopentyl)oxy]-3-oxo-2,3-dihydro-1H-isoindol-2-yl]methyl}pyrimidine-5-carbonitrile [Example 480]",3.7
12,"2-{[(1R)-1-(4-chlorophenyl)-7-fluoro-5-[1-hydroxy-1-(1-methyl-1H-imidazol-4-yl)propyl]-3-oxo-1-[trans-3-(hydroxymethyl)cyclobutoxy]-2,3-dihydro-1H-isoindol-2-yl]methyl}pyrimidine-5-carbonitrile [Example 481]",0.33
13,"2-{[(1R)-1-(4-chlorophenyl)-7-fluoro-5-[1-hydroxy-1-(1-methyl-1H-imidazol-4-yl)propyl]-3-oxo-1-[trans-3-(hydroxymethyl)cyclobutoxy]-2,3-dihydro-1H-isoindol-2-yl]methyl}pyrimidine-5-carbonitrile [Example 482]",5
14,"4-{[(1R)-1-(4-chlorophenyl)-1-{[1-(hydroxymethyl)cyclopropyl]methoxy}-5-(2-hydroxypropan-2-yl)-3-oxo-2,3-dihydro-1H-isoindol-2-yl]methyl}benzonitrile [Example 25]",0.09
15,"6-{[(1R)-1-(4-Chlorophenyl)-5-(1-cyclopropyl-1-hydroxyethyl)-7-fluoro-1-{[1-(hydroxymethyl)cyclopropyl]methoxy}-3-oxo-2,3-dihydro-1H-isoindol-2-yl]methyl}pyridine-3-carbonitrile [Example 414]",0.11
16,"6-{[(1R)-1-(4-chlorophenyl)-5-[cyclopropyl(hydroxy)(1-methyl-1H-imidazol-4-yl)methyl]-7-fluoro-3-oxo-1-[(3S)-oxolan-3-yloxy]-2,3-dihydro-1H-isoindol-2-yl]methyl}pyridine-3-carbonitrile [Example 433]",1.5

row,Substance,IC50 [µM]
1,"6-{[(1R)-1-(4-chlorophenyl)-5-[cyclopropyl(hydroxy)(1-methyl-1H-imidazol-4-yl)methyl]-7-fluoro-3-oxo-1-[(3S)-oxolan-3-yloxy]-2,3-dihydro-1H-isoindol-2-yl]methyl}pyridine-3-carbonitrile [Example 434]",0.47
2,"6-{[(1R)-1-(4-chlorophenyl)-7-fluoro-5-[1-hydroxy-1-(1-methyl-1H-imidazol-4-yl)propyl]-1-[(2R)-2-hydroxypropoxy]-3-oxo-2,3-dihydro-1H-isoindol-2-yl]methyl}pyridine-3-carbonitrile [Example 437]",2.5
3,"6-{[(1R)-1-(4-chlorophenyl)-7-fluoro-5-[1-hydroxy-1-(1-methyl-1H-imidazol-4-yl)propyl]-1-[(2R)-2-hydroxypropoxy]-3-oxo-2,3-dihydro-1H-isoindol-2-yl]methyl}pyridine-3-carbonitrile [Example 438]",0.34
4,"6-{[(1R)-1-(4-chlorophenyl)-7-fluoro-5-[1-hydroxy-1-(1-methyl-1H-imidazol-4-yl)propyl]-3-oxo-1-[(3S)-oxolan-3-yloxy]-2,3-dihydro-1H-isoindol-2-yl]methyl}pyridine-3-carbonitrile [Example 365]",0.1
5,"6-{[(1R)-1-(4-chlorophenyl)-7-fluoro-5-[1-hydroxy-1-(1-methyl-1H-imidazol-4-yl)propyl]-3-oxo-1-[(3S)-oxolan-3-yloxy]-2,3-dihydro-1H-isoindol-2-yl]methyl}pyridine-3-carbonitrile [Example 366]",2.7
6,"6-{[(1R)-1-(4-chlorophenyl)-7-fluoro-5-[1-hydroxy-1-(1-methyl-1H-pyrazol-4-yl)ethyl]-1-[(1-hydroxycyclopropyl)methoxy]-3-oxo-2,3-dihydro-1H-isoindol-2-yl]methyl}pyridine-3-carbonitrile [Example 340]",2
7,"6-{[(1R)-1-(4-chlorophenyl)-7-fluoro-5-[1-hydroxy-1-(1-methyl-1H-pyrazol-4-yl)ethyl]-1-[(1-hydroxycyclopropyl)methoxy]-3-oxo-2,3-dihydro-1H-isoindol-2-yl]methyl}pyridine-3-carbonitrile [Example 341]",0.5
8,"(3R)-2-[(5-chloro-3-methanesulfonylpyridin-2-yl)methyl]-3-(4-chlorophenyl)-4-fluoro-6-[1-hydroxy-1-(1-methyl-1H-pyrazol-4-yl)ethyl]-3-methoxy-2,3-dihydro-1H-isoindol-1-one [Example 372]",2.6
9,"(3R)-2-[(5-chloro-3-methanesulfonylpyridin-2-yl)methyl]-3-(4-chlorophenyl)-4-fluoro-6-[1-hydroxy-1-(1-methyl-1H-pyrazol-4-yl)ethyl]-3-methoxy-2,3-dihydro-1H-isoindol-1-one [Example 373]",0.26
10,"(3R)-3-(4-Chlorophenyl)-2-[(4-chlorophenyl)methyl]-6-(2-hydroxypropan-2-yl)-3-{[1-(methoxymethyl)cyclopropyl]methoxy}-2,3-dihydro-1H-isoindol-1-one [Example 31]",0.76
11,"(3R)-3-(4-chlorophenyl)-2-[(1S)-1-(4-chlorophenyl)ethyl]-3-(2,3-dihydroxy-2-methylpropoxy)-6-(2-hydroxypropan-2-yl)-2,3-dihydro-1H-isoindol-1-one [Example 6]",2.5
12,"(3R)-3-(4-chlorophenyl)-2-[(1S)-1-(4-chlorophenyl)ethyl]-3-{[(3R,4S)-4-hydroxyoxolan-3-yl]oxy}-6-(2-hydroxypropan-2-yl)-2,3-dihydro-1H-isoindol-1-one [Example 46]",0.76
13,"(3R)-3-(4-chlorophenyl)-2-[(4-chlorophenyl)methyl]-6-(1,2-dihydroxypropan-2-yl)-3-{[1-(hydroxymethyl)cyclopropyl]methoxy}-2,3-dihydro-1H-isoindol-1-one [Example 8]",3.8
14,"(3R)-3-(4-chlorophenyl)-2-[(5-chloropyridin-2-yl)methyl]-4-fluoro-6-[1-hydroxy-1-(1-methanesulfonylpiperidin-4-yl)ethyl]-3-methoxy-2,3-dihydro-1H-isoindol-1-one [Example 294]",0.077
15,"(3R)-3-(4-chlorophenyl)-2-[(5-chloropyridin-2-yl)methyl]-4-fluoro-6-[1-hydroxy-1-(1-methyl-1H-pyrazol-4-yl)ethyl]-3-[(2R)-2-hydroxypropoxy]-2,3-dihydro-1H-isoindol-1-one [Example 221]",2.2

# Same assay, conditions: read-out: SJSA1 IC50 (μM) (Protocol B); SJSA-1, CellTiter-Glo, 72 hrs
row,Substance,IC50 [µM]
1,"(3R)-2-[(4-Chloro-2-methanesulfonylphenyl)methyl]-3-(4-chlorophenyl)-6-(1,2-dihydroxypropan-2-yl)-4-fluoro-3-{[1-(hydroxymethyl)cyclopropyl]methoxy}-2,3-dihydro-1H-isoindol-1-one [Example 65]",0.26
